# AlphaSeq binding of Ab-95 light chain variants to a spike HR2 peptide

Reference: Engelhart et al. 2022, doi:10.1038/s41597-022-01779-4. File: FLAb, binding data.

All variants were tested on one target, the spike HR2 peptide PDVDLGDISGINAS (SARS-CoV-2).

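Phage display of a naive human antibody library on the peptide gave the parent. The library (AAYL52) carries one to three amino acid substitutions per variant, with no insertions or deletions. The scFvs were displayed on barcoded MATa yeast, the peptide on MATalpha yeast. After mating in shaken culture at 30 °C for 16 h, diploids were selected and their barcode pairs sequenced. A regression on co-assayed BCL2-family reference pairs converts the normalised counts of each replicate to an apparent Kd. Mating was done three times.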

The variants keep the heavy chain, the linker and the frameworks of Ab-95 (scFv order VH, the linker GGGGSGGGGSGGGGS, VL).
VH: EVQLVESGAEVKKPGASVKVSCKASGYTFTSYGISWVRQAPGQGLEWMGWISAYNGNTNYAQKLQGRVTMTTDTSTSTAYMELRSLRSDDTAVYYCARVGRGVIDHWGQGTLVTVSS
VL: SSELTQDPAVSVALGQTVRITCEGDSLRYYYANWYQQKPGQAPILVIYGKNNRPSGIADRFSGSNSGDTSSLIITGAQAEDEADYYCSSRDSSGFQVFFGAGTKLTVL

Positions count from residue 1 of the parent VL; L27F puts F in place of L. The read-out is the apparent dissociation constant on a log10 scale (nM): the lower, the stronger. "nd" marks a missing value. The strain was present, yet no cells mated with the target were sequenced in that replicate, which points to weak or no binding. For reference, the parent read 2.31 as the reference entry and 2.25 as a member of this library.

| changes | replicates, log10 nM | empty controls |
|---|---|---|
| L27F+P54F+S92K | 3.28 4.36 3.69 | 0/9 |
| L27R+Y30D | 2.39 2.09 2.02 | 3/9 (4.64) |
| R28D+R53H+Q96V | 3.11 4.27 nd | 0/9 |
| S26K+N51W+P54L | nd nd nd | 2/9 (3.77) |
| E23Q+S92G+S93F | 2.27 2.48 2.23 | 7/9 (4.02) |
| Y30C | 2.60 2.58 2.33 | 2/9 (3.10) |
| S89W+D91K+S93F | 5.51 3.01 nd | 2/9 (4.46) |
| G24E+G49D+S55F | nd nd nd | 3/9 (3.88) |
| P54S | 2.35 1.82 2.41 | 1/9 (3.61) |
| E23V+S93H+Q96C | 4.08 nd nd | 0/9 |
| S93D+Q96K+F98R | nd nd nd | 0/9 |
| E23L+Y29P+R90G | 2.93 2.45 2.16 | 4/9 (4.09) |
| D25N+S26V+Y30I | 3.48 nd 3.13 | 1/9 (3.25) |
| S26F+Y30V+N51G | 2.67 2.83 2.77 | 1/9 (4.76) |
| E23F+G24V | 3.13 3.64 3.58 | 1/9 (4.14) |
| K50N+S93M+Q96N | 3.02 2.62 2.58 | 3/9 (3.62) |
| Y31V+F95T+Q96L | 4.07 5.07 3.35 | 1/9 (3.63) |
| Y29G+Y31S+D91Q | nd nd nd | 2/9 (4.50) |
| S26K+Q96R+V97K | nd nd 4.13 | 2/9 (3.36) |
| S88M+R90M+F98M | 4.87 3.70 4.46 | 2/9 (4.16) |
| R28H+N52P+R90I | 4.88 4.72 nd | 3/9 (4.64) |
| Y31P+R53K+S92H | 1.27 1.38 0.78 | 5/9 (4.18) |
| S26C+R28K+F95V | nd 2.95 4.25 | 1/9 (4.13) |
| S26A+Q96K | 2.97 4.09 2.48 | 2/9 (3.91) |
| Y31I+G94H+F95D | 3.57 nd nd | 4/9 (3.97) |
| D25K+S26L | 3.18 4.58 nd | 5/9 (3.76) |
| E23W+S26M+F95G | 5.41 nd nd | 1/9 (5.57) |
| S26D+Y29R+N52I | 2.46 2.57 2.23 | 4/9 (3.84) |
| D25I+S88H+S93C | nd nd 4.33 | 2/9 (4.02) |
| R28C+Y30V+K50C | nd 3.38 nd | 5/9 (4.05) |
| S88Q+S89P+D91W | nd 3.60 nd | 5/9 (3.50) |
| L27H+Y31W | 4.96 nd nd | 1/9 (3.52) |
| R28G+Y30T+Y31T | 1.47 1.69 1.06 | 1/9 (3.77) |
| Y29G+P54V+S93A | 1.80 1.61 1.14 | 2/9 (4.52) |
| Y30H+A32H+Q96A | nd 3.04 nd | 2/9 (2.99) |
| G24R+P54A+D91I | nd nd nd | 6/9 (3.98) |

Top 6 of the variants detected in all replicates, tightest first:

| changes | replicates, log10 nM | empty controls |
|---|---|---|
| Y31P+R53K+S92H | 1.27 1.38 0.78 | 5/9 (4.18) |
| R28G+Y30T+Y31T | 1.47 1.69 1.06 | 1/9 (3.77) |
| Y29G+P54V+S93A | 1.80 1.61 1.14 | 2/9 (4.52) |
| L27R+Y30D | 2.39 2.09 2.02 | 3/9 (4.64) |
| P54S | 2.35 1.82 2.41 | 1/9 (3.61) |
| E23Q+S92G+S93F | 2.27 2.48 2.23 | 7/9 (4.02) |

Nonspecific signal, from three strains lacking the peptide, appeared in 28% of pairings of library AAYL52, centred on 3.91 (5% of these signals below 2.90); values are not corrected for it. For each scFv, signals with the empty controls are counted beside the result, with their mean in brackets.